## Binding of CDR-mutated scFvs to a peptide of the spike HR2 region

Binding partner: SARS-CoV-2 spike HR2 peptide, sequence PDVDLGDISGINAS.

Ab-14 is the parent antibody, in scFv form: VH, then a (GGGGS)3 linker, then VL. The light chain is unchanged in all variants.
VH: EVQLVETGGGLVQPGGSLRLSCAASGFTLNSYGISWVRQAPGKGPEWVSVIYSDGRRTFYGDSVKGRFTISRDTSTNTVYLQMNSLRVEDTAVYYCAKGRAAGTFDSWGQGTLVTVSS
VL: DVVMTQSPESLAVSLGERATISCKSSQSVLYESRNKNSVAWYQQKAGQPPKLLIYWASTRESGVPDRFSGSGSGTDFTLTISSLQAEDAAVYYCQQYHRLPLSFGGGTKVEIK

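The parent was found by panning a naive human phage display library on the peptide. AAYL49 was designed without a model: most single CDR substitutions and a random sample of double and triple ones. The assay is AlphaSeq: two haploid yeast populations carry antibody and antigen on their surface. After mating in shaken culture at 30 °C for 16 h, diploids were selected and their barcode pairs sequenced. A regression on co-assayed BCL2-family reference pairs converts the normalised counts of each replicate to an apparent Kd. Each pool was mated in three replicate cultures.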

Each variant's VH is given in full. The read-out is the apparent dissociation constant on a log10 scale (nM): the lower, the stronger. "n.d." marks a missing value. The strain was present, yet no cells mated with the target were sequenced in that replicate, which points to weak or no binding.

{"VH": "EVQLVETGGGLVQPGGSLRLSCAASGFTLNSYGISWVRQAPGKGPEWVSVIYNDGRRTFYGDSWKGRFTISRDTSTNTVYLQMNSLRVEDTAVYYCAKGRAAGDFDSWGQGTLVTVSS", "log10 Kd (nM) by replicate": "n.d. n.d. 3.77", "signal with controls": "0/9"}
{"VH": "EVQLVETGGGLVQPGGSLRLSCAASGWTLNSYGISWVRQAPGKGPEWVSVIYSDGRRTFYGCSVHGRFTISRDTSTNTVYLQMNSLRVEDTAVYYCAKGRAAGTFDSWGQGTLVTVSS", "log10 Kd (nM) by replicate": "n.d. n.d. n.d.", "signal with controls": "4/9 (4.03)"}
{"VH": "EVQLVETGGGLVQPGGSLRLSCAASGFTLNSYGISWVRQAPGKGPEWVSVIYSDVRRTFYGDHVKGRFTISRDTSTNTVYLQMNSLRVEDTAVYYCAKGRAAGTKDSWGQGTLVTVSS", "log10 Kd (nM) by replicate": "4.23 3.34 n.d.", "signal with controls": "1/9 (4.01)"}
{"VH": "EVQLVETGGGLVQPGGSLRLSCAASGFTLNSYIISWVRQAPGKGPEWVSVTYSDGRATFYGDSVKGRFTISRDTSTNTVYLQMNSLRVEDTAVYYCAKGRAAGTFDSWGQGTLVTVSS", "log10 Kd (nM) by replicate": "n.d. n.d. n.d.", "signal with controls": "0/9"}
{"VH": "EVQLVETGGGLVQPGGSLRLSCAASGFTLDSYGISWVRQAPGKGPEWVSVIYSDGRRTFYGGSVKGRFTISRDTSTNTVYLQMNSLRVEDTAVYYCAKKRAAGTFDSWGQGTLVTVSS", "log10 Kd (nM) by replicate": "n.d. n.d. n.d.", "signal with controls": "0/9"}
{"VH": "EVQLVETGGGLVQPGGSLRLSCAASGFTLASYGISWVRQAPGKGPEWVSVIYSDPRRTFYGDSVKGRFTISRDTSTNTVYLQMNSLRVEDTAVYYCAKGRAAGAFDSWGQGTLVTVSS", "log10 Kd (nM) by replicate": "n.d. 2.54 n.d.", "signal with controls": "0/9"}
{"VH": "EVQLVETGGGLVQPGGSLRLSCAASGFTLNSYGISWVRQAPGKGPEWVSVVYSDGRRTEYGDSVKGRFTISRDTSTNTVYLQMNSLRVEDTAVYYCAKGRAATTFDSWGQGTLVTVSS", "log10 Kd (nM) by replicate": "2.20 2.06 4.06", "signal with controls": "0/9"}
{"VH": "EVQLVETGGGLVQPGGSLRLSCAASGATLNVYGISWVRQAPGKGPEWVSVIHSDGRRTFYGDSVKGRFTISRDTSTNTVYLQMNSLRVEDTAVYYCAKGRAAGTFDSWGQGTLVTVSS", "log10 Kd (nM) by replicate": "n.d. n.d. 5.06", "signal with controls": "1/9 (3.99)"}
{"VH": "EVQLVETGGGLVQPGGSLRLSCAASGFTLNSYGISWVRQAPGKGPEWVSVIYYDGRPTFYGDSVKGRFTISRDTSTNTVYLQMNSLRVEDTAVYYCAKGRAAGTFDLWGQGTLVTVSS", "log10 Kd (nM) by replicate": "n.d. n.d. 5.17", "signal with controls": "0/9"}
{"VH": "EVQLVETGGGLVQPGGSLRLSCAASGFSLNSYGISWVRQAPGKGPEWVSVIYSDGRRTFYGDSVKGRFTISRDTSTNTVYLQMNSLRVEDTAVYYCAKGMAAMTFDSWGQGTLVTVSS", "log10 Kd (nM) by replicate": "n.d. n.d. n.d.", "signal with controls": "1/9 (3.88)"}
{"VH": "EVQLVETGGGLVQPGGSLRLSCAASGFTLNRYGISWVRQAPGKGPEWVSVIYSDGFRTFYGDSVKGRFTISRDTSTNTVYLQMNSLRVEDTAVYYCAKGRAAGTADSWGQGTLVTVSS", "log10 Kd (nM) by replicate": "n.d. 3.56 n.d.", "signal with controls": "1/9 (2.73)"}
{"VH": "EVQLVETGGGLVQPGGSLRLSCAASGFTLNSGGISWVRQAPGKGPEWVSVIYSIGRRNFYGDSVKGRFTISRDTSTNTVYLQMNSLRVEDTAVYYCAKGRAAGTFDSWGQGTLVTVSS", "log10 Kd (nM) by replicate": "n.d. n.d. n.d.", "signal with controls": "0/9"}
{"VH": "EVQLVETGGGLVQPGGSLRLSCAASGFLLNSYGISWVRQAPGKGPEWVSVIYSDGRRTFYGDSVKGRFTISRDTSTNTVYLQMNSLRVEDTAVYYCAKGTAAGEFDSWGQGTLVTVSS", "log10 Kd (nM) by replicate": "n.d. 3.47 n.d.", "signal with controls": "4/9 (3.70)"}
{"VH": "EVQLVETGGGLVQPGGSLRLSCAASGFTLNSYGYSWVRQAPGKGPEWVSVIYSDGRRTFYGDSVKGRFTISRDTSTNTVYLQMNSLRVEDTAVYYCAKGRASGSFDSWGQGTLVTVSS", "log10 Kd (nM) by replicate": "n.d. 4.45 n.d.", "signal with controls": "3/9 (3.57)"}
{"VH": "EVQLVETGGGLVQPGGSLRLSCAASGFTLNSYGISWVRQAPGKGPEWVSVIYSDGRRTFYGDSVKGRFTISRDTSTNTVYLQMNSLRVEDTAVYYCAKGRAATTFDSWGQGTLVTVSS", "log10 Kd (nM) by replicate": "1.47 1.52 1.21", "signal with controls": "1/9 (2.86)"}
{"VH": "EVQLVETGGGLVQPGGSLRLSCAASGFTLNSYDISWVRQAPGKGPEWVSVIYSDGRRTWYGDSVKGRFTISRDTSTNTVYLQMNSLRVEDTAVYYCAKGMAAGTFDSWGQGTLVTVSS", "log10 Kd (nM) by replicate": "n.d. 3.22 n.d.", "signal with controls": "1/9 (3.34)"}
{"VH": "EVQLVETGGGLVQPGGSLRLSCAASGFVLNSYGISWVRQAPGKGPEWVSVIYSDGRATFYGDSVKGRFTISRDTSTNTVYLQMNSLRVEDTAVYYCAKGRAAGRFDSWGQGTLVTVSS", "log10 Kd (nM) by replicate": "n.d. n.d. n.d.", "signal with controls": "0/9"}
{"VH": "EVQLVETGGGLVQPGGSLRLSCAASGFTLNSYGISWVRQAPGKGPEWVSVIYSDARRTFYGDSVLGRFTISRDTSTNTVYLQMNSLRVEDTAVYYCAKGRAAGTFDSWGQGTLVTVSS", "log10 Kd (nM) by replicate": "4.99 n.d. 3.80", "signal with controls": "5/9 (3.72)"}
{"VH": "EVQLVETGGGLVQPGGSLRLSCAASGFTLNSYGISWVRQAPGKGPEWVSVIYSMCRRTFYGDSVKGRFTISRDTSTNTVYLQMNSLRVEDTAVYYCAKGREAGTFDSWGQGTLVTVSS", "log10 Kd (nM) by replicate": "n.d. n.d. n.d.", "signal with controls": "0/9"}
{"VH": "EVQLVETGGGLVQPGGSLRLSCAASGFTCNSYGISWVRQAPGKGPEWVSVIYSDGDRTFYGDSVKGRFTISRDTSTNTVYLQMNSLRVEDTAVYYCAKGRAAGTFDLWGQGTLVTVSS", "log10 Kd (nM) by replicate": "n.d. n.d. n.d.", "signal with controls": "2/9 (3.33)"}

Repeated from above, the 2 best binders with a signal in all replicates:

VH	log10 Kd (nM) by replicate	signal with controls
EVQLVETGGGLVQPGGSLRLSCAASGFTLNSYGISWVRQAPGKGPEWVSVIYSDGRRTFYGDSVKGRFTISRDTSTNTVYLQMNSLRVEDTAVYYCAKGRAATTFDSWGQGTLVTVSS	1.47 1.52 1.21	1/9 (2.86)
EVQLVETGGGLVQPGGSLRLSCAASGFTLNSYGISWVRQAPGKGPEWVSVVYSDGRRTEYGDSVKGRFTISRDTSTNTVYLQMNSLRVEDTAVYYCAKGRAATTFDSWGQGTLVTVSS	2.20 2.06 4.06	0/9

For reference, the parent read 0.65 as the reference entry and 4.11 (one replicate of three) as a member of this library. As a blank, each scFv also met three strains without target: over library AAYL49, 15% of these pairings were detected, typically at 4.06 and seldom below 2.83. The control count says in how many pairings with the empty strains this scFv gave a signal, with their mean in brackets.

The measurements come from Engelhart et al. 2022 (doi:10.1038/s41597-022-01779-4) through the FLAb antibody collection.